The values below come from patent US20030229002A1, “Use of agents that modulate PDE11A activity” (Pfizer Inc., priority 2002, published 2003).

Chains of the proteins cited; added tags and fusions are not shown. Lines headed by an entry give the natural chain unless they say otherwise; changes in a name come on top. Residues count along the entry.
UniProt Q9HCR9, 445-933: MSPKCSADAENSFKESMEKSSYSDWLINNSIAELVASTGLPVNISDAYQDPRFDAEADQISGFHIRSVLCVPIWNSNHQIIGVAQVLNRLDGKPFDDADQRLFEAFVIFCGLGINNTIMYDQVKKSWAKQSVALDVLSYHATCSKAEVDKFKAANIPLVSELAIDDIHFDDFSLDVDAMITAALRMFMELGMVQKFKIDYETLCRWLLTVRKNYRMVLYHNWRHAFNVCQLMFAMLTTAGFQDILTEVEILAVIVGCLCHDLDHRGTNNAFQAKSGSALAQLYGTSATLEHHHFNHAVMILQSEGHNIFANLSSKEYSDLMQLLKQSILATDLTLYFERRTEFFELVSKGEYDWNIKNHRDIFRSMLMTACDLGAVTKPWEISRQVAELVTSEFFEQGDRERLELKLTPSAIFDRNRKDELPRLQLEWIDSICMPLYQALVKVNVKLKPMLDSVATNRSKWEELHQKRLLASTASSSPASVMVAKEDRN
UniProt O76083: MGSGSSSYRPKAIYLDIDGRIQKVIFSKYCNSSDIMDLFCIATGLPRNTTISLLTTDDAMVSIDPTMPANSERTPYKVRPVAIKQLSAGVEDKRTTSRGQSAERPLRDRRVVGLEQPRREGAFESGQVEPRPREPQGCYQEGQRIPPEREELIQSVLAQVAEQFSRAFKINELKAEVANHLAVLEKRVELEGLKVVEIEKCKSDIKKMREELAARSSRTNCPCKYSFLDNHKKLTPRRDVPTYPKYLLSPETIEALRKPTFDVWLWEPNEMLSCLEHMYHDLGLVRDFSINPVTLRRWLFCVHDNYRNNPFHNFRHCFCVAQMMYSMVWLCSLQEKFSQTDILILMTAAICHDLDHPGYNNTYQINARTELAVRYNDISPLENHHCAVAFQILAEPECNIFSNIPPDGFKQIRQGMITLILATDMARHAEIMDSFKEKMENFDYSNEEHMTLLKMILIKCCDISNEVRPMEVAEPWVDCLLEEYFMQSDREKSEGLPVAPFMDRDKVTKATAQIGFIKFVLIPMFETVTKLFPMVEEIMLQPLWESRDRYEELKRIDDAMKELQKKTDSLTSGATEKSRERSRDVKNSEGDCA

Each structure is given as a SMILES string. pIC50: −log10 of the molar value. Counter-ions that a name gives are not always drawn.

What all share (format): biochemical
Assay [1] addresses T1, recombinant human PDE11A (Homo sapiens, UniProt Q9HCR9).
T1 construct: made in house; host or cells: Sf9 insect cells (baculovirus)
As to the kind of experiment: PDE11A inhibition, SPA-based cGMP hydrolysis assay.

Assay [2] deals with PDE5 (Homo sapiens, UniProt O76074). The experiment in a line: PDE5 inhibition, SPA-based cGMP hydrolysis assay. The note with it: PDE5 isolated from human corpus cavernosum; geometric mean of at least 3 determinations.
In assay [3] the target is T2, recombinant human PDE9 (Homo sapiens, UniProt O76083).
T2 construct: made in house; host or cells: Sf9 insect cells (baculovirus)
The experiment in a line: PDE9 inhibition, SPA-based assay. The note with it: Sf9 cells, geometric mean of at least 3 determinations.

For the compound `O=C(O)C1CCN(c2nc(NCc3ccc4c(c3)OCO4)c3cc(Cl)ccc3n2)CC1` [Compound E4021, 1-[4-[(1,3-benzodioxol-5-ylmethyl)amino]-6-chloro-2-quinazolinyl]-4-piperidinecarboxylic acid, monohydrochloride], the “selectivity for inhibiting PDE11A when compared to PDEs 7-10” value in assay [1] is reported as “demonstrated selectivity”. Further, the pIC50 (in general, −log10 of the IC50, conventionally taken in molar units) in assay [2] was 7.48.
Regarding `CCCc1nn(C)c2c(=O)[nH]c(-c3cc(S(=O)(=O)N4CCN(C)CC4)ccc3OCC)nc12` [Sildenafil, 5-[2-ethoxy-5-(4-methyl-1-piperazinylsulphonyl)phenyl]-1-methyl-3-n-propyl-1,6-dihydro-7H-pyrazolo[4,3-d]pyrimidin-7-one], the pIC50 in assay [3] is 5.61.
Turning to `Clc1ccc2nc(-n3ccnc3)nc(NCc3ccccc3)c2c1` [UK-235,187, 6-Chloro-2-(1H-imidazol-1-yl)-N-(phenylmethyl)-,4-quinazolinamine, dihydrochloride], in assay [2], the negative-log IC50 (pIC50) is 8.33.
